Data taken from PubChem BioAssay AID720702 (The Scripps Research Institute Molecular Screening Center, 2013).
Only a part is listed here, and it is no random draw. Calls of active or inactive are those of the source.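 How the source made its calls: active means inhibition above the mean of all tested compounds plus 3 SD, set per campaign (cut at about 25% in these data); inactive means the rest.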

Protein sequences, listed by entry. Tags and fused reporters are not part of them.
UniProt O95551, whole entry: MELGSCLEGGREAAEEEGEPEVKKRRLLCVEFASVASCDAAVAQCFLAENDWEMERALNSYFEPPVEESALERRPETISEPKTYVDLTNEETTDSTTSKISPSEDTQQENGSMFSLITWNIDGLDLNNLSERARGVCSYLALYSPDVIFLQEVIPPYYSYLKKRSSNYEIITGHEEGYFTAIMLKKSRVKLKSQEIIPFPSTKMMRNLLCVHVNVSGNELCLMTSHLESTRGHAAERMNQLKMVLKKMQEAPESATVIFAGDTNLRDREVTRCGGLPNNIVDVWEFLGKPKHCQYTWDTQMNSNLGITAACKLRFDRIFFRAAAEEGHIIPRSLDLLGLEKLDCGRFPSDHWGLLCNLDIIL

Target: Tyrosyl-DNA phosphodiesterase 2 (Homo sapiens) (UniProt O95551)
Experiment: blockers of TDP2 phosphodiesterase activity – biochemical, epi absorbance, recombinant enzyme, primary screen (AID 720702);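 further: 0% = DMSO with enzyme and 100% = buffer with substrate but no TDP2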
Settings: recombinant TDP2, T5PNP hydrolysis, p-nitrophenol absorbance 415 nm; at 12.8 µM; hits give high values
In short: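 Test system: human TDP2 enzyme; Input: 120 nM TDP2 per well; Buffer or medium: Mg2+-containing Tris-HCl buffer, pH 7.5; Reagent: 5 mM T5PNP; Dosing: 12.8 µM single point, 1% DMSO; Incubation: reaction 2 h, 37 °C; Detection: p-Nitrophenol epi absorbance; Read-out: % inhibition relative to enzyme-containing and enzyme-free wells; Replicates: single well per compound.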

Row | SMILES | inhibition
1 | CCC(=O)N(c1ccccc1)C1(COC)CCN(CCn2nnn(CC)c2=O)CC1 | inactive: 3.18%
2 | CCC(=O)N(c1ccccc1)C1(COC)CCN(CCc2cccs2)CC1 | inactive: -5.16%
